Reference: PubChem BioAssay AID1510 (The Scripps Research Institute Molecular Screening Center, 2009)
Only a part is listed here, and it is no random draw. Activity calls are given as the source filed them. Cut-off read from the data, not from the text of the source: active = inhibition above about 29%; inactive = the rest.

The chains behind the UniProt entries cited, without tags or fusion partners.
UniProt O95977, whole entry: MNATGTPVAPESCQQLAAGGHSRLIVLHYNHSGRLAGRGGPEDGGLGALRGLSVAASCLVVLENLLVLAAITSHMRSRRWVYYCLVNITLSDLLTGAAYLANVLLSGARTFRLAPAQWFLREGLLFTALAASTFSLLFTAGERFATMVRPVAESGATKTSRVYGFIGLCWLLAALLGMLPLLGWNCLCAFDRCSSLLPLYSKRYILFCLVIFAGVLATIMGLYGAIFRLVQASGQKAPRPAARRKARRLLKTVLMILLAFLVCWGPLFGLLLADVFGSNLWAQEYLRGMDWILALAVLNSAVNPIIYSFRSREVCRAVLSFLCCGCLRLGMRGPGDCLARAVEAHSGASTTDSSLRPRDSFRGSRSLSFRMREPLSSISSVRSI

Each molecule was assayed against Sphingosine 1-phosphate receptor 4 (Homo sapiens) (UniProt O95977) (assay: S1P4 receptor antagonists, primary screen, cell-based (AID 1510;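 note: 0% = wells stimulated with agonist and 100% = vehicle wells without agonist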)). Settings: S1P4-expressing cells, antagonist mode, reporter read-out; at 4.98 µM; hits give high values.
For `O=C(OCCN1CCN(CCOCc2ccccc2)CC1)C(O)(c1ccccc1)c1ccccc1`, the inhibition was inactive: -23.1%. With `O=C(OC1CN2CCC1CC2)c1ccc([N+](=O)[O-])cc1` (stereo not drawn) the inhibition was inactive: -1.75%. For `CC(C)c1ccc(OP(C)(=O)Nc2ccc(SC(F)(F)F)cc2)cc1` (stereo not drawn), the inhibition was inactive: -11.1%. In the case of `CP(=O)(Nc1ccccc1F)Oc1ccccc1` (stereo not drawn), the inhibition was inactive: 6.14%. `CCCCCOc1ccc(NP(C)(=O)Oc2ccc(Cl)cc2Cl)cc1` (stereo not drawn) was tested, and the inhibition was inactive: -8.39%. `CP(=O)(Nc1ccccc1)Oc1ccc(F)cc1` (stereo not drawn) was tested, and the inhibition was inactive: 9.29%. In the case of `CCN(CC)CCCOC(=O)C(O)(c1ccccc1)C1CCCCC1` (stereo not drawn), the inhibition was inactive: 1.72%. `COc1ccc(OP(C)(=O)Nc2ccc(SC(F)(F)F)cc2)cc1` (stereo not drawn) was tested, and the inhibition was inactive: 1.61%. In the case of `CCOC(=O)c1ccc(NP(C)(=O)Oc2ccc(F)cc2)cc1` (stereo not drawn), the inhibition was inactive: -2.85%. `O=[N+]([O-])c1cc([N+](=O)[O-])c(NCC2CCS(=O)(=O)C2)c([N+](=O)[O-])c1` (stereo not drawn) was tested, and the inhibition was inactive: -14.8%. In the case of `Cc1cc(-c2cccc3ccccc23)c(C)cn1.O=[N+]([O-])c1cc([N+](=O)[O-])c(O)c([N+](=O)[O-])c1`, the inhibition was inactive: 6.3%. `O=[N+]([O-])c1ccc(OP2(=O)COCCO2)cc1` (stereo not drawn) was tested, and the inhibition was inactive: -4.73%. With `COc1ccc(NP(C)(=O)Oc2ccccc2OC)cc1` (stereo not drawn) the inhibition was inactive: -2.05%. For `CN(C)CCOC(=O)C(O)(c1ccccc1)C1CCCCC1` (stereo not drawn), the inhibition was inactive: 1.48%. `COc1ccc(OP(C)(=O)Nc2cccc(Br)c2)cc1` (stereo not drawn) was tested, and the inhibition was inactive: -8.05%. With `Cc1ccccc1NP(C)(=O)Nc1ccccc1C` the inhibition was inactive: -4.09%. In the case of `CP(=O)(Nc1ccc2c(c1)OCCO2)Oc1ccccc1` (stereo not drawn), the inhibition was inactive: -2.72%. For `CCOP(C)(=S)SCC(=O)NC(C)(CC)C(=O)O` (stereo not drawn), the inhibition was inactive: -3.91%. In the case of `CP(=O)(Nc1ccc(SC(F)(F)F)cc1)Oc1ccc(F)cc1` (stereo not drawn), the inhibition was inactive: -7.33%. `CN(C)C(=O)c1c([N+](=O)[O-])cc([N+](=O)[O-])cc1[N+](=O)[O-]` was tested, and the inhibition was inactive: 13.5%. For `CP(=O)(Nc1ccc(Cl)cc1)Oc1ccc(F)cc1` (stereo not drawn), the inhibition was inactive: 3.12%. In the case of `CC(C)(C)c1ccc(OP(C)(=O)O)cc1`, the inhibition was inactive: 18.4%. For `COc1ccccc1OP(C)(=O)Nc1ccccc1Br` (stereo not drawn), the inhibition was inactive: 10.7%. In the case of `CP(=O)(Oc1ccccc1)N1CCOC1=O` (stereo not drawn), the inhibition was inactive: -8.8%. `CCc1ccc(OP(C)(=O)Nc2cccnc2)cc1` (stereo not drawn) was tested, and the inhibition was inactive: -1.78%. `COc1ccccc1OP(C)(=O)Nc1c(C)n(C)n(-c2ccccc2)c1=O` (stereo not drawn) was tested, and the inhibition was inactive: -5.96%. In the case of `O=C(OCCCN1CCCC1)C(O)(c1ccccc1)C1CCCCC1` (stereo not drawn), the inhibition was inactive: 5.71%. `CCN(CC)CC(O)COC(=O)C(O)(c1ccccc1)C1CCCCC1` (stereo not drawn) was tested, and the inhibition was inactive: -18.1%. For `COc1ccc(OP(C)(=O)Nc2ccc(Br)cc2)cc1` (stereo not drawn), the inhibition was inactive: -12.5%. In the case of `CP(=O)(OC12CC3CC(CC(C3)C1)C2)OC12CC3CC(CC(C3)C1)C2`, the inhibition was inactive: 9.34%. `CCOC(=O)c1ccc(NP(C)(=O)Oc2ccc(Cl)cc2)cc1` (stereo not drawn) was tested, and the inhibition was inactive: 11.2%. With `CP(=O)(OCCOc1ccccc1)OCCOc1ccccc1` the inhibition was inactive: -10.9%. `CP(=O)(Nc1ccc(Cl)cc1Cl)Oc1ccccc1` (stereo not drawn) was tested, and the inhibition was inactive: -1.95%. In the case of `Cc1nc2ccc3ccccc3c2o1.O=[N+]([O-])c1cc([N+](=O)[O-])c(O)c([N+](=O)[O-])c1`, the inhibition was inactive: 1.03%. With `COc1ccc(OP(C)(=O)Nc2ccccc2Br)cc1` (stereo not drawn) the inhibition was inactive: -2.29%. With `COc1ccccc1OP(C)(=O)Nc1ccc(C)c(C)c1` (stereo not drawn) the inhibition was inactive: -5.14%. For `Cc1cc(C)cc(OP(C)(=O)Nc2cccc(C(F)(F)F)c2)c1` (stereo not drawn), the inhibition was inactive: 10.8%. `CCc1ccc(OP(C)(=O)O)cc1` was tested, and the inhibition was inactive: -9.68%. `CP(=O)(Nc1ccccn1)Oc1ccccc1` (stereo not drawn) was tested, and the inhibition was inactive: -1.04%. In the case of `COc1ccccc1OP(C)(=O)Nc1ccc(C)cc1C` (stereo not drawn), the inhibition was inactive: -7.03%. `O=[N+]([O-])c1cc([N+](=O)[O-])c(Nc2ccccn2)c([N+](=O)[O-])c1` was tested, and the inhibition was inactive: -8.8%. With `Cc1c(NP(C)(=O)Oc2ccc(C(C)C)cc2)c(=O)n(-c2ccccc2)n1C` (stereo not drawn) the inhibition was inactive: -3.31%. In the case of `CN(C)CCOC(=O)C(O)(c1ccccc1)C1CCCC1` (stereo not drawn), the inhibition was inactive: -2.13%. `COc1ccc(OP(C)(=O)Nc2ccccn2)cc1` (stereo not drawn) was tested, and the inhibition was inactive: -11%. For `COc1ccccc1OP(C)(=O)Nc1ccc(Br)cc1` (stereo not drawn), the inhibition was inactive: -19%. For `CCN(CC)CCCOC(=O)C(O)(c1ccccc1)c1ccccc1`, the inhibition was inactive: 7.69%. In the case of `COc1ccccc1OP(C)(=O)Nc1cc(Cl)ccc1C` (stereo not drawn), the inhibition was inactive: 1.07%. For `COc1ccc(OP(C)(=O)Nc2cccc(F)c2)cc1` (stereo not drawn), the inhibition was inactive: 10.9%. In the case of `Cc1cc(C)cc(OP(C)(N)=O)c1` (stereo not drawn), the inhibition was inactive: -17.5%. In the case of `CCOC(=O)c1ccc(NP(C)(=O)Oc2ccccc2)cc1` (stereo not drawn), the inhibition was inactive: -2.78%. For `COc1ccccc1OP(C)(=O)Nc1ccc(C)cc1` (stereo not drawn), the inhibition was inactive: -22.4%. `Cc1ccc(NP(C)(=O)Oc2ccccc2)c(C)c1` (stereo not drawn) was tested, and the inhibition was inactive: -14%. With `CC(C)(C)c1ccc(OP(C)(=O)Nc2ccc(SC(F)(F)F)cc2)cc1` (stereo not drawn) the inhibition was inactive: -2.6%. `Cc1cccc(C)c1OP(C)(N)=O` (stereo not drawn) was tested, and the inhibition was inactive: -3.42%. `O=[N+]([O-])c1ccc2c(c1)C=Nc1ccccc1O2` was tested, and the inhibition was inactive: -18.9%. For `COc1ccccc1OP(C)(=O)Nc1ccccc1` (stereo not drawn), the inhibition was inactive: -6.88%. For `CP(=O)(Nc1ccccc1Br)Oc1ccccc1` (stereo not drawn), the inhibition was inactive: 4.43%. `CP(=S)(Nn1cnnc1)Oc1ccccc1` (stereo not drawn) was tested, and the inhibition was inactive: -14.3%. With `CP(=O)(Nc1ccccn1)Oc1ccc(Cl)cc1` (stereo not drawn) the inhibition was inactive: 1.02%. For `CCOP(C)(=S)SCC(=O)NC(C)C(=O)O` (stereo not drawn), the inhibition was inactive: -12.3%. In the case of `CCOC(=O)c1ccc(NP(C)(=O)Oc2ccc(OC)cc2)cc1` (stereo not drawn), the inhibition was inactive: -8.3%. With `CCc1ccc(OP(C)(=O)N2CCN(c3ccc([N+](=O)[O-])cc3)CC2)cc1` (stereo not drawn) the inhibition was inactive: 11.2%. In the case of `CP(=O)(NC(=O)Nc1ccccc1)Oc1ccccc1` (stereo not drawn), the inhibition was inactive: 5.8%. `Cc1cc(C)cc(OP(C)(=O)Nc2ccc(SC(F)(F)F)cc2)c1` (stereo not drawn) was tested, and the inhibition was inactive: -22.6%. For `CP(=O)(Nc1ccc(SC(F)(F)F)cc1)Oc1ccc(Cl)cc1` (stereo not drawn), the inhibition was inactive: -6.58%. In the case of `Cc1cccc(C)c1OP(C)(=O)Nc1ccc(SC(F)(F)F)cc1` (stereo not drawn), the inhibition was inactive: -7.21%. For `CP(=O)(Oc1ccccc1)OC(c1ccccc1)C(F)(F)F` (stereo not drawn), the inhibition was inactive: -7.73%. `Cc1nc2ccc3ccccc3c2s1.O=[N+]([O-])c1cc([N+](=O)[O-])c(O)c([N+](=O)[O-])c1` was tested, and the inhibition was inactive: -6.13%. For `O=[N+]([O-])c1cc([N+](=O)[O-])c(-n2nnc3ccccc32)c([N+](=O)[O-])c1`, the inhibition was inactive: -4.85%. For `CP(=O)(Nc1ccc(SC(F)(F)F)cc1)Oc1ccccc1` (stereo not drawn), the inhibition was inactive: -3.54%. In the case of `CCCOc1ccc(NP(C)(=O)Oc2ccc(Cl)cc2)cc1` (stereo not drawn), the inhibition was inactive: -3.6%. In the case of `CN1CCCCC1COC(=O)C1(O)c2ccccc2CCc2ccccc21` (stereo not drawn), the inhibition was inactive: -5.67%. With `COc1ccccc1OP(C)(=O)Nc1c(C)cccc1C` (stereo not drawn) the inhibition was inactive: -11.4%. With `O=[N+]([O-])c1cc([N+](=O)[O-])c(Nc2nnnn2CCO)c([N+](=O)[O-])c1` the inhibition was inactive: -3.19%. `CCOC(=O)C(CC)C1=NC(C)(C)Cc2ccccc21.O=[N+]([O-])c1cc([N+](=O)[O-])c(O)c([N+](=O)[O-])c1` (stereo not drawn) was tested, and the inhibition was inactive: 0.11%. In the case of `CC1=NCCc2c1[nH]c1ccccc21.O=[N+]([O-])c1cc([N+](=O)[O-])c(O)c([N+](=O)[O-])c1`, the inhibition was inactive: -4.49%. With `O=C(O)c1cccc(Nc2c([N+](=O)[O-])cc([N+](=O)[O-])cc2[N+](=O)[O-])c1` the inhibition was inactive: -14.5%. `CP(=O)(Nc1cccc(Br)c1)Oc1ccccc1` (stereo not drawn) was tested, and the inhibition was inactive: -4.44%. With `Cc1cc(C)cc(OP(C)(=O)Nc2ccccn2)c1` (stereo not drawn) the inhibition was inactive: -3.29%. In the case of `Cc1ccc(C)c(NP(C)(=O)Oc2ccccc2)c1` (stereo not drawn), the inhibition was inactive: -5.49%. With `Cc1cc(C)cc(OP(C)(=O)Nc2ccc(C)cc2C)c1` (stereo not drawn) the inhibition was inactive: -1.53%. `CCOC(=O)c1ccc(NP(C)(=O)Oc2cc(C)cc(C)c2)cc1` (stereo not drawn) was tested, and the inhibition was inactive: -11.1%. `COc1ccccc1OP(C)(=O)Nc1cccc(Br)c1` (stereo not drawn) was tested, and the inhibition was inactive: -5.42%.
